Data published in ChEMBL document CHEMBL1156282, “4-Substituted-7-azaindoles bearing a ureidobenzofuranone moiety as potent and selective, ATP-competitive inhibitors of the mammalian target of rapamycin (mTOR)” (Bioorg Med Chem Lett, 2010).

Test: Selectivity ratio of IC50 for PI3Kalpha to IC50 for mTOR

Point of comparison: CNC(=O)Nc1ccc2c(c1)C(=O)/C(=C/c1cn(C)c3nccc(N4CC5CCC(C4)O5)c13)O2, Ratio IC50 61. Against it:
- CN(Cc1cccnc1)C(=O)C1CCN(c2ccnc3c2c(/C=C2\Oc4ccc(NC(=O)Nc5cccnc5)cc4C2=O)cn3C)CC1 — higher, 94
- CN(C(=O)C1CCN(c2ccnc3c2c(/C=C2\Oc4ccc(NC(=O)Nc5cccnc5)cc4C2=O)cn3C)CC1)c1cccnc1 — higher, 380
- Cn1cc(/C=C2\Oc3ccc(NC(=O)Nc4cccnc4)cc3C2=O)c2c(N3CCC(C(=O)N4CC5CCC(C4)O5)CC3)ccnc21 — higher, 98.6
- Cn1cc(/C=C2\Oc3ccc(NC(=O)Nc4cccnc4)cc3C2=O)c2c(N3CCOCC3)ccnc21 — lower, 4
- Cn1cc(/C=C2\Oc3ccc(NC(=O)Nc4cccnc4)cc3C2=O)c2c(N3CCC(C(=O)N4C5CCC4COC5)CC3)ccnc21 — higher, 644
- CN(C)CCNC(=O)Nc1ccc2c(c1)C(=O)/C(=C/c1cn(C)c3nccc(N4CC5CCC(C4)O5)c13)O2 — lower, 4
- CN(C)C1CCN(C(=O)C2CCN(c3ccnc4c3c(/C=C3\Oc5ccc(NC(=O)Nc6cccnc6)cc5C3=O)cn4C)CC2)C1 (configuration not stated) — higher, > 909
- Cn1cc(/C=C2\Oc3ccc(NC(=O)Nc4cccnc4)cc3C2=O)c2c(N3CC4CCC3CO4)ccnc21 (configuration not stated) — lower, 33
- CNC(=O)Nc1cccc2c1C(=O)/C(=C/c1cn(C)c3nccc(-c4ccccc4)c13)O2 — not separable, > 2.9
- Cn1cc(/C=C2\Oc3ccc(NC(=O)Nc4cccnc4)cc3C2=O)c2c(N3CC4CCC(C3)O4)ccnc21 — higher, 145
- CNC(=O)Nc1ccc2c(c1)C(=O)/C(=C/c1cn(C)c3nccc(-c4ccccc4)c13)O2 — lower, 6
- CN(Cc1ccccn1)C(=O)C1CCN(c2ccnc3c2c(/C=C2\Oc4ccc(NC(=O)Nc5cccnc5)cc4C2=O)cn3C)CC1 — higher, 187
- CCNC(=O)Nc1ccc2c(c1)C(=O)/C(=C/c1cn(C)c3nccc(N4CC5CCC(C4)O5)c13)O2 — lower, 5.5
- CCN(CC)C(=O)C1CCN(c2ccnc3c2c(/C=C2\Oc4ccc(NC(=O)Nc5cccnc5)cc4C2=O)cn3C)CC1 — lower, 2.7
- CN(Cc1ccccc1)C(=O)C1CCN(c2ccnc3c2c(/C=C2\Oc4ccc(NC(=O)Nc5cccnc5)cc4C2=O)cn3C)CC1 — higher, > 98
- CN(C)C(=O)C1CCN(c2ccnc3c2c(/C=C2\Oc4ccc(NC(=O)Nc5cccnc5)cc4C2=O)cn3C)CC1 — higher, 193
